Results reported in ChEMBL document CHEMBL5316332 (J Med Chem, 2023).

Experiments:
[1] = Selectivity ratio of IC50 for inhibition of TGFBR1 (unknown origin) to IC50 for inhibition of recombinant C-terminal 6His-tagged human BMPR2 (188 to 517 residues) expressed in Escherichia coli Rosetta
[2] = Selectivity ratio of IC50 for inhibition of BMPR1B (unknown origin) to IC50 for inhibition of recombinant C-terminal 6His-tagged human BMPR2 (188 to 517 residues) expressed in Escherichia coli Rosetta
[3] = Selectivity ratio of IC50 for inhibition of BMPR1A (unknown origin) to IC50 for inhibition of recombinant C-terminal 6His-tagged human BMPR2 (188 to 517 residues) expressed in Escherichia coli Rosetta
[4] = Selectivity ratio of IC50 for inhibition of TGFBR2 (unknown origin) to IC50 for inhibition of recombinant C-terminal 6His-tagged human BMPR2 (188 to 517 residues) expressed in Escherichia coli Rosetta
[5] = Selectivity ratio of IC50 for inhibition of ACVRL1 (unknown origin) to IC50 for inhibition of recombinant C-terminal 6His-tagged human BMPR2 (188 to 517 residues) expressed in Escherichia coli Rosetta
[6] = Selectivity ratio of IC50 for inhibition of ACVR1 (unknown origin) to IC50 for inhibition of recombinant C-terminal 6His-tagged human BMPR2 (188 to 517 residues) expressed in Escherichia coli Rosetta

Compound | Ratio IC50 [1] | Ratio IC50 [2] | Ratio IC50 [3] | Ratio IC50 [4] | Ratio IC50 [5] | Ratio IC50 [6]
CNC(=O)[C@@H]1CC[C@@H](n2c(-c3ccc4cnccc4c3)nc3ccc(C(=O)NCc4cccc(C(N)=O)c4)cc32)C1 | > 555 | > 555 | > 555 | > 555 | 148 | 139
NC(=O)c1cccc(CNC(=O)c2ccc3nc(-c4ccc5cnccc5c4)n(C4CCCC4)c3c2)c1 | > 830 | > 830 | > 830 | – | 110 | 130
